We go through 2 substances from patent EP0528486A2, “Non-substrate inhibitors of farnesyl protein transferase” (MERCK & CO. INC., priority 1991, dated 1993).

This assay deals with farnesyl-protein transferase from bovine brain (bovine) (UniProt P29702). As to the kind of experiment: cell-based or functional assay.

As to CVFM-NH₂ (SEQ ID NO: 2) (peptide), the IC₅₀ (µM), Inhibition of Ras Farnesylation by Tetrapeptides came out at 2.3 µM.
The figure for CVLS-NH₂ (SEQ ID NO: 1) (peptide) is 16 µM.
